Measurements as given in patent publication US20250101013A1, “FUNCTIONALIZED AMINOTHIAZOLES” (LEADXPRO AG, priority 2022, published 2025).

By UniProt entry, the sequences of proteins in these tests, tags left out. Where a name states a change or a piece, a line headed by the entry shows the natural chain unless it says otherwise.
UniProt P0DMS8, whole entry: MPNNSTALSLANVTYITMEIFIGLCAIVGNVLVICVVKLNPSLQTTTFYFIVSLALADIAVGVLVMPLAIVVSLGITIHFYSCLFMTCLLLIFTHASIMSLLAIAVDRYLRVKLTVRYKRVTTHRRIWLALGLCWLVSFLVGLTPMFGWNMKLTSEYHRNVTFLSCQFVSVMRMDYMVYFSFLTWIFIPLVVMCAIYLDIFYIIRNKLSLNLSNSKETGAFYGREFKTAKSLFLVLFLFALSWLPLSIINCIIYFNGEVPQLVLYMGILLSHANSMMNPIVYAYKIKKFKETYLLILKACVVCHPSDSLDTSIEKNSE
UniProt P30542, whole entry: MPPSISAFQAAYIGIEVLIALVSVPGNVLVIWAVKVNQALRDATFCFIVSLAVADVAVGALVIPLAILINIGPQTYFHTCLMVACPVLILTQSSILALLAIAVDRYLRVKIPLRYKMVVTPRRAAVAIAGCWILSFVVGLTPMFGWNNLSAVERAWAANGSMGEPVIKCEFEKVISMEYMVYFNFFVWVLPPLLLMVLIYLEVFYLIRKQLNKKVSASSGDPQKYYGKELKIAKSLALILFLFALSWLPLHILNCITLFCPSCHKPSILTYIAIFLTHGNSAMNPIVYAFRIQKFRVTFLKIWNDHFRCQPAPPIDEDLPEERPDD
UniProt P29275, whole entry: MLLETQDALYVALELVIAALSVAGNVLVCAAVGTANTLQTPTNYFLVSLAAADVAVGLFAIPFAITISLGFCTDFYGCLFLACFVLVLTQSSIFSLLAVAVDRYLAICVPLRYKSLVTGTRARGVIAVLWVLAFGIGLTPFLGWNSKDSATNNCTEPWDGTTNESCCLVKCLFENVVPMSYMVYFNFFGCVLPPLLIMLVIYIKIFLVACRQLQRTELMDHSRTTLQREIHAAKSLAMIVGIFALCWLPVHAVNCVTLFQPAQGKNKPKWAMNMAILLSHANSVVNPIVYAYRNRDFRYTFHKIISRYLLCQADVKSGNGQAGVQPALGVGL

Tests used:
[1] = target: human A3 receptor (Homo sapiens (Human), UniProt P0DMS8); assay: Intracellular cAMP functional assay (HTRF), A3; details: read-out: Human A3 EC50, HEK293 cells expressing recombinant human receptor
Method: (§1) Compound activity in human adenosine receptors A2A, A2B, A1, and A3 was measured in this functional cellular assay using an HTRF kit (Perkin Elmer). Prior to the test, HEK293 cells expressing recombinant human adenosine receptors were grown in media without antibiotic, were detached by gentle flushing with PBS-EDTA (5 mM EDTA), were recovered by centrifugation and were resuspended in assay buffer (KRH: 5 mM KCl, 1.25 mM MgSO4, 124 mM NaCl, 25 mM HEPES, 13.3 mM Glucose, 1.25 mM KH2PO4, 1.45 mM CaCl2, 0.5 g/l BSA, supplemented with 1 mM IBMX or 25 μM Rolipram). Dose response curves were performed in parallel with the reference compounds. The reference compounds used for A2A, A2B, A1, and A3, were respectively NECA, ZM241385, DPCPX, MRS. 12 μl of cells were mixed with 6 μl of the test compound at increasing concentrations and then incubated 10 min. Thereafter 6 μl of the reference agonist was added at a final concentration corresponding to the historical EC80. The plates were then incubated for 30 min at room temperature. After addition of the lysis buffer and 1 hour incubation, cAMP concentrations were estimated, according to the manufacturer specification, with the HTRF kit. The results showing functional activity of embodied compounds on adenosine receptors are shown below in Table 1.

[2] = target: human A1 receptor (Homo sapiens (Human), UniProt P30542); assay: Intracellular cAMP functional assay (HTRF), A1; details: read-out: Human A1 EC50, HEK293 cells expressing recombinant human receptor
Method: as §1

[3] = target: human A2A receptor (Homo sapiens (Human), UniProt P29274); assay: Intracellular cAMP functional assay (HTRF), A2A; details: read-out: Human A2A EC50, HEK293 cells expressing recombinant human receptor
Method: as §1

[4] = target: human A2B receptor (Homo sapiens (Human), UniProt P29275); assay: Intracellular cAMP functional assay (HTRF), A2B; details: read-out: Human A2B EC50, HEK293 cells expressing recombinant human receptor
Method: as §1

`Cc1cc(-c2sc(Nc3nc[nH]n3)nc2-c2cccc(C#N)c2)c(C)cn1` was tested, and the EC50 [1] was > 20000 nM, the EC50 [2] was 251 nM and the EC50 [3] was > 10000 nM. The EC50 [4] was 1.5 nM.
